{
  "sequences": {"note": "Protein sequences, listed by entry. Tags and fused reporters are not part of them. Residues count along the entry.", "UniProt P31424, 21-1203": "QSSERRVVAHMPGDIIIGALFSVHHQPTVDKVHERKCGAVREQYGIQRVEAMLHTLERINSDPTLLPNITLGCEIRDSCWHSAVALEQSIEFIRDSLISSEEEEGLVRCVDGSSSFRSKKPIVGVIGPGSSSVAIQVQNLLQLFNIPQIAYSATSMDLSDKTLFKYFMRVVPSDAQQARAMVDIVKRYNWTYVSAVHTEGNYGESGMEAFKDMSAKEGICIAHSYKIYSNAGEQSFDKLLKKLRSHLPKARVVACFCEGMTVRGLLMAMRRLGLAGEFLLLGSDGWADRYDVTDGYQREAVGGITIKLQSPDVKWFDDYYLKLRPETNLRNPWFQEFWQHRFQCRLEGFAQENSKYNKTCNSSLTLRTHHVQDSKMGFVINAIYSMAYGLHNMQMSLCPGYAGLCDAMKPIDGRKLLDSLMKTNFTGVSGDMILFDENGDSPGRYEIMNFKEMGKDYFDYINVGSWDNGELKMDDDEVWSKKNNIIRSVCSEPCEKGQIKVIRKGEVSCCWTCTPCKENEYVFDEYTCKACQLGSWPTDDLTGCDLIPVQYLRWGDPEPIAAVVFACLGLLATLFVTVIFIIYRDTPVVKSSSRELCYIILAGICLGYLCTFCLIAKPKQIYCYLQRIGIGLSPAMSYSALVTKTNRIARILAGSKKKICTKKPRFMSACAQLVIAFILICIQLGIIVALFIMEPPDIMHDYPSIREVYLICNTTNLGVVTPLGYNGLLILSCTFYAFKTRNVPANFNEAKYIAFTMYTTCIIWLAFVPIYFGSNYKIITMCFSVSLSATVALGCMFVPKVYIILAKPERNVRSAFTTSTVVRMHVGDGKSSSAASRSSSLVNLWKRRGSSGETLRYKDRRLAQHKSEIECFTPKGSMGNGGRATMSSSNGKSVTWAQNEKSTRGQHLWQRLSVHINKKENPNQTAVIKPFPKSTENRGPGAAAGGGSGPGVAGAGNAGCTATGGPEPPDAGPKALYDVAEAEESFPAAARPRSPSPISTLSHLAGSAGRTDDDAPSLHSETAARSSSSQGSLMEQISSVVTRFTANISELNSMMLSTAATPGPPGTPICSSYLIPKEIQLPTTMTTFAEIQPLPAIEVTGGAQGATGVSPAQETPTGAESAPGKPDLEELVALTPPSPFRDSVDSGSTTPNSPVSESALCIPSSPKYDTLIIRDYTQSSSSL"},
  "source": "patent US7531541B2",
  "about": "“Partial mGluR5 antagonists for treatment of anxiety and CNS disorders” (Vanderbilt University, priority 2005, dated 2009)",
  "target": "T1, rat mGluR5 (allosteric MPEP site) (Rattus norvegicus, UniProt P31424)",
  "T1 construct": "expressed in transfected cells",
  "assay": "[3H]methoxyPEPy radioligand binding assay, membranes of HEK293A cells stably expressing rat mGluR5",
  "settings": "2 nM [3H]methoxyPEPy, 60 min room temperature, read-out: Ki, displacement of [3H]methoxyPEPy binding",
  "procedure": "FIG. 3. MPEP analogs inhibit the binding of [3H]methoxyPEPy to membranes from cells expressing mGluR5. Membranes prepared from rat mGluR5 HEK293a cells (10 μg/well) were incubated with radiolabeled MPEP analog [3H]methoxyPEPy (2 nM) in the presence of varying concentrations of MPEP analogs for 60 min at room temperature. Samples were filtered through glass fiber filters and washed extensively. Non-specific binding was estimated with 5 μM MPEP. Concentration response curves were generated from the means of three separate experiments. Error bars represent SEM.\nThe allosteric antagonist MPEP analog [3H]methoxyPEPy (Cosford et al., [3H]-methoxymethyl-MTEP and [3H]-methoxy-PEPy: potent and selective radioligands for the metabotropic glutamate subtype 5 (mGluR5) receptor. Bioorg Med Chem Lett 13:351-4, 2003) was used to evaluate the interaction of the test compounds with the allosteric MPEP site on mGluR5. Membranes were prepared from HEK293A cells stably expressing rat mGluR5. Compounds were diluted into assay buffer (50 mM Tris/0.9% NaCl, pH 7.4) to a 5× stock and 20 μL test compound added to each well of a 96 well assay plate. 60 μL aliquots of membranes diluted in assay buffer (10 μg/well) were added to each well. […] 30 μL scintillation fluid was added to each well and the membrane-bound radioactivity determined by scintillation counting (TopCount by Perkin-Elmer). […]",
  "data": [
    {"molecule": "Cc1cccc(C#Cc2ccccc2)n1", "note": "[MPEP, 2-methyl-6-(phenylethynyl)-pyridine, reference compound]", "values": [
      {"measurement": "Ki", "value": "4.72 ± 1.5", "unit": "nM"}
    ]}
  ]
}
